Assay: Exposure of the solid form to 20-80% relative humidity for 7 days at room temperature
Format: physicochemical
Conditions: exposed to 20-80% RH for 7 days at room temperature

In the case of “Lucerastat: Salicylic acid [Lucerastat: Salicylic acid Form LC-2]”, the deliquescence is reported as “does not deliquesce” and the polymorphic stability is reported as “polymorphically stable”.
